From ChEMBL document CHEMBL1145898, “Molecular docking studies of natural cholinesterase-inhibiting steroidal alkaloids from Sarcococca saligna” (J Med Chem, 2003)

The chains behind the UniProt entries cited, without tags or fusion partners. Where a name states a change or a piece, a line headed by the entry shows the natural chain unless it says otherwise.
UniProt P04058: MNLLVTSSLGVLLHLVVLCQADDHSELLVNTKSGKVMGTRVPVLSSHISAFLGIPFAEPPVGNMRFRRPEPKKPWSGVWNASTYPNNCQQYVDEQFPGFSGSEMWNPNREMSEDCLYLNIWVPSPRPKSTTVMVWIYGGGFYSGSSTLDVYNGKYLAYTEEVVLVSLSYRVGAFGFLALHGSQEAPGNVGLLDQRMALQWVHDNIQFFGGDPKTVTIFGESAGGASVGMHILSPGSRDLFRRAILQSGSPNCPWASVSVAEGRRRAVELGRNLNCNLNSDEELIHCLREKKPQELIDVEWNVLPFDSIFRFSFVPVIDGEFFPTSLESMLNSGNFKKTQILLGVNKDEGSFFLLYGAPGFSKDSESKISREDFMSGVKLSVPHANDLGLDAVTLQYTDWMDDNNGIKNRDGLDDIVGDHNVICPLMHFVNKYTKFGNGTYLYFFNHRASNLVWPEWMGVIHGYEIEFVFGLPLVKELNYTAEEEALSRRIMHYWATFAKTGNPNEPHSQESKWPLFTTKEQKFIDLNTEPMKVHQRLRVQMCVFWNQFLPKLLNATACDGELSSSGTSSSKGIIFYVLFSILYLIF

Target: Acetylcholinesterase (Torpedo californica, UniProt P04058)
Test: In vitro anticholinesterase activity was determined against acetylcholinesterase from Torpedo californica
Parameters: species or system Tetronarce californica

C/C=C(\C)C(=O)N[C@H]1CC[C@@]2(C)C(=CC[C@H]3C4=CC[C@H]([C@H](C)N(C)C)[C@@]4(C)CC[C@@H]32)C1=O
IC50: 5.8 µM
